Assay results: PubChem BioAssay AID602197 (NMMLSC, 2012)
The list shows a part of the results, in another mix than the full data. Calls of active or inactive are those of the source. No stated cut-off is given here; in the data, active means response above about 24%; inactive means the rest.

Assay: V-ATPase regulators in yeast, one dose – S. cerevisiae, pH-sensitive GFP, second cherry-pick, confirmation (AID 602197);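 further: plate controls were vehicle wells for no effect and positive control wells for full effect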
Settings: S. cerevisiae pHLuorin cytosolic pH, V-ATPase proton transport; at 10 µM; active compounds read high

Q: Which response does the source give for O=P(Nc1ccccn1)(c1ccc(Br)cc1)c1ccc(Br)cc1 here?
A: inactive: 1.85%
